## OPERA 2.9 data: melting point values

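These are experimental values that the OPERA curators gathered from public databases to train and test their QSAR models. The files give a single number for a compound and property, which may rest on several reports. Conditions of the individual experiments are not part of the data. A value may pool stereoisomers or salt forms, and the file does not say which form was measured. Some entries may be limits or estimates that an upstream database listed as plain numbers.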

The melting point is given in degrees Celsius. Cells with "–" have no entry in this list.

| mp (°C) | SMILES | name |
|---|---|---|
| 91 | COCCn1c(N)cc(=O)[nH]c1=O | 6-amino-1-(2-methoxyethyl)pyrimidine-2,4(1H,3H)-dione |
| 189 | Cc1cc2oc(=O)cc(CCl)c2cc1C | 4-(chloromethyl)-6,7-dimethyl-2H-chromen-2-one |
| 150 | O=C1COc2ccccc2C(=O)N1 | 1,4-benzoxazepine-3,5(2H,4H)-dione |
| 132 | Cc1sc2ncn(N)c(=O)c2c1C | 3-Amino-5,6-dimethylthieno[2,3-d]pyrimidin-4(3H)-one |
| 74 | COc1ccc(C)cc1NC(=O)CCl | 2-chloro-N-(2-methoxy-5-methylphenyl)acetamide |
| 191.5 | C[C@@H]1CCO[C@H]2Cn3cc(C(=O)NCc4ccc(F)cc4F)c(=O)c(O)c3C(=O)N12 | Dolutegravir |
| 213 | O=C1CCc2cc(C(=O)CCl)ccc2N1 | 6-(chloroacetyl)-3,4-dihydroquinolin-2(1H)-one |
| 113 | Cc1ccccc1-n1nc(C(C)(C)C)cc1N | 3-tert-Butyl-1-(2-methylphenyl)-1H-pyrazol-5-amine |
| 175 | NC(=O)NCC(=O)O | Glycine, N-(aminocarbonyl)- |
| 164 | O=C(O)c1oc2ccccc2c1COc1ccccc1 | 3-(Phenoxymethyl)-2-benzofurancarboxylic acid |
| 142 | Cc1ccc(-n2c(-c3ccc(Cl)cc3)n[nH]c2=S)cc1 | – |
| 152 | COc1c(OC)c(OC(C)=O)c2c(C#N)cccc2c1OC(C)=O | 5-Cyano-2,3-dimethoxy-1,4-naphthalenediyl diacetate |
| 142 | N#CCCNc1cccc(Cl)c1 | 3-(3-Chloroanilino)propanenitrile |
| 101 | O=S(=O)(c1ccc(Cl)cc1)N1CCNCC1 | 1-[(4-chlorophenyl)sulfonyl]piperazine |
| 123 | Cc1sc(N)nc1-c1ccc(F)cc1 | 4-(4-Fluorophenyl)-5-methyl-1,3-thiazol-2-amine |
| 130 | NNC(=O)Cc1ccc(F)cc1 | 2-(4-fluorophenyl)acetohydrazide |
| 115 | CC(C)C(=O)NC(N)=S | N-Carbamothioyl-2-methylpropanamide |
| 207.8 | CC(=O)OCC(=O)[C@@]1(OC(C)=O)CC[C@H]2[C@@H]3C[C@H](F)C4=CC(=O)C=C[C@]4(C)C34O[C@@H]4C[C@@]21C (some centres undefined) | – |
| 64 | N#CC(=O)c1cccc(Cl)c1Cl | (2,3-Dichlorophenyl)oxoacetonitrile |
| 143 | COc1ccc(OCC(=O)NN)cc1 | 2-(4-methoxyphenoxy)acetohydrazide |
| 239 | NS(=O)(=O)c1cccc(C(=O)O)c1 | 3-sulfamoylbenzoic acid |
| 194 | NC(=O)N1CCC(C(=O)O)CC1 | 1-carbamoylpiperidine-4-carboxylic Acid |
| 197.7 | CCCCCCC(O)CCCCCCCCCCC(=O)[O-].CCCCCCC(O)CCCCCCCCCCC(=O)[O-].[Ba+2] (stereo unspecified) | Octadecanoic acid, 12-hydroxy-, barium salt (2:1) |
| 138 | Cc1cccc(NC(=O)CCCCl)c1 | 4-chloro-N-(3-methylphenyl)butanamide |
| 64 | CNC(=O)CCCl | 3-chloro-n-methylpropanamide |
| 149 | N#Cc1c(Cl)nc(Cl)c(Cl)c1Cl | – |
| 133 | N#CCC(=O)NC1CCCCC1 | 2-cyano-N-cyclohexylacetamide |
| 258 | Cc1sc2ncnc(N)c2c1C | 5,6-Dimethylthieno(2,3-d)pyrimidin-4-amine |
| 142 | O=Cc1cn(-c2ccccc2)nc1-c1ccc(Br)cc1 | 3-(4-Bromophenyl)-1-phenyl-1H-pyrazole-4-carbaldehyde |
| 70 | COc1ccccc1C(=O)NCC(=O)O | (2-Methoxy-benzoylamino)-acetic acid |
| 132 | c1ccc2nc3c(ccc4ccccc43)cc2c1 | Benz[c]acridine |
| 57 | Cc1nonc1N | Furazan, aminomethyl- (8CI) |
| 43.5 | O=[N+]([O-])c1cc(C(F)(F)F)ccc1CCl | 2-Nitro-4-(trifluoromethyl)benzyl chloride |
| 170 | O=C(O)C1=NN(c2ccccc2)C(=O)CC1 | – |
| 109 | N#Cc1c(N)sc2c1CCCCC2 | – |
| 66 | Cc1oc(-c2cccs2)nc1CCl | 4-(Chloromethyl)-5-methyl-2-(thiophen-2-yl)-1,3-oxazole |
| 134 | CC(=O)Nc1cccc(C#N)c1 | N-(3-cyanophenyl)acetamide |
| 120 | Cc1nc(-c2ccc(Cl)cc2)cs1 | 4-(4-Chlorophenyl)-2-methylthiazole |
| 108 | O=C(O)c1cc(S(=O)(=O)Cl)ccc1F | 5-(chlorosulfonyl)-2-fluorobenzoic acid |
| 107 | N#CCc1ccccc1C(=O)O | Benzoic acid, 2-(cyanomethyl)- |
| 134 | CC(Cl)C(=O)NC(c1ccccc1)c1ccccc1 (stereo unspecified) | N-benzhydryl-2-chloropropanamide |
| 172 | Cc1ccc(-n2cnnn2)cc1N | 2-methyl-5-(1H-tetrazol-1-yl)aniline |
| 213 | CC1(C)CC(=O)c2sc(N)nc2C1 | 2-Amino-5,5-dimethyl-5,6-dihydro-4H-benzothiazol-7-one |
| -13.54 | CC(C)CCOC(=O)c1ccccc1 | Isopentyl benzoate |
| 125 | O=C(CCCl)Nc1ccc(Cl)cc1 | 3-Chloro-N-(4-chlorophenyl)propanamide |
| 44.5 | Cc1cc(I)cnc1Br | 2-Bromo-5-iodo-3-methylpyridine |
| 106.9 | O=C/C=C/C=C/c1ccc([N+](=O)[O-])cc1 | 5-(4-Nitrophenyl)-2,4-pentadien-1-al |

The 4 lowest values of mp among the entries above:

{"smiles": "CC(C)CCOC(=O)c1ccccc1", "name": "Isopentyl benzoate", "mp (°C)": "-13.54"}
{"smiles": "O=[N+]([O-])c1cc(C(F)(F)F)ccc1CCl", "name": "2-Nitro-4-(trifluoromethyl)benzyl chloride", "mp (°C)": "43.5"}
{"smiles": "Cc1cc(I)cnc1Br", "name": "2-Bromo-5-iodo-3-methylpyridine", "mp (°C)": "44.5"}
{"smiles": "Cc1nonc1N", "name": "Furazan, aminomethyl- (8CI)", "mp (°C)": "57"}

Values as listed in the OPERA 2.9 repository of K. Mansouri.